Literature values as cited in patent publication US11261215B2, “Somatostatin prodrugs” (YISSUM RESEARCH DEVELOPMENT COMPANY OF THE HEBREW …, priority 2017, dated 2022).

Test system: Caco2
Conditions: Caco2 studies; cited from earlier work

## DPhe-(Cys-Phe-DTrp-Lys-Thr-Cys)-Thr(ol) [Octreotide]
  mechanism of absorption: via the paracellular pathway
